Assay results taken from article PMC2410110, “Differential effects of ketoconazole on exposure to temsirolimus following intravenous infusion of temsirolimus” (British Journal of Cancer, 2008).

Test: Drug interaction study: whole blood pharmacokinetics of temsirolimus and sirolimus after single 5-mg i.v. temsirolimus alone or with oral ketoconazole
Assay type: in vivo
Conditions: human, intravenous, single 5 mg i.v. temsirolimus + ketoconazole 400 mg oral, mean (CV)
Procedure: In this open-label, non-randomised, single-centre, two-period, sequential study, subjects received temsirolimus (Torisel™; Wyeth Pharmaceuticals, Philadelphia, PA, USA) alone, followed by temsirolimus in combination with ketoconazole after a 14-day washout period. On study day 1 of the first period, subjects received 25 mg i.v. diphenhydramine, followed 30 min later by 5 mg i.v. temsirolimus over 30 min. Subjects remained in the clinical unit until the 72-h blood collection (study day 4) and returned for subsequent blood draws at designated time points over the next 4 days (study days 5–8). Study days 9 through 13 were part of the washout period. […]
The concentrations of temsirolimus and sirolimus in blood were measured simultaneously using validated liquid chromatography/tandem mass spectrometry combination procedures with deuterated internal standard ([Punt et al, 2003]). […] Analytes were detected by tandem mass spectrometry using atmospheric pressure chemical ionisation. The concentration of analytes was determined with calibration standards using linear least squares regression.
Pharmacokinetic parameters for temsirolimus were analysed for each subject for each study period using non-compartmental methods ([Jusko, 1992]). […] The Cmax and the time to reach Cmax (Tmax) were determined visually from the concentration–time curves. […]

SMILES: CO[C@H]1C[C@@H]2CC[C@@H](C)[C@@](O)(O2)C(=O)C(=O)N2CCCC[C@H]2C(=O)O[C@H]([C@H](C)C[C@@H]2CC[C@@H](O)[C@H](OC)C2)CC(=O)[C@H](C)/C=C(\C)[C@@H](O)[C@@H](OC)C(=O)[C@H](C)C[C@H](C)/C=C/C=C/C=C/1C [Sirolimus]
- Tmax: 3 h
